Only a part is listed here, and it is no random draw. Some of these compounds have results that are not shown, active ones among them. The source made the active and inactive calls. Cut-off read from the data, not from the text of the source: active = activation above about 40%; inactive = the rest, inconclusive results apart.

The assay concerns Aedes aegypti neuropeptide Y-like receptor 7 (NPYLR7). The experiment in a line: agonists of mosquito NPYLR7 receptor, primary screen, cell-based, Aedes aegypti, calcium fluorescence, mosquito biting behavior (AID 1259423).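 Note: 0% = vehicle and 100% = reference agonist at the receptor.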 The settings on record: HEK293T NPYLR7/Galpha15, GCaMP6s calcium fluorescence; at 10 µM; hits give high values.
For the compound `N#CC(C#N)=Cc1ccc(Br)cc1`, the activation was inactive: 11.7%. With `CN(C)C1(CNC(=O)c2cc(Br)c(Br)s2)CCCCC1`, the activation is inactive: 4.09%.

(Values after PubChem BioAssay AID1259423 (Fisher Drug Discovery Resource Center, 2018).)
